Values of other authors in patent US5250572A (priority 1992, dated 1993).
Structures can show the parent of a compound that is named as a salt.

Test system: serotonin uptake
Details: words; background, known from earlier patents; cited from earlier work

For CNCCC(Oc1ccc(C(F)(F)F)cc1)c1ccccc1 (racemic) [fluoxetine hydrochloride, dl-N-methyl-3-[4-(trifluoromethyl)phenoxy]-3-phenylpropylamine], the “serotonin / monoamine uptake blockade” value is listed as “selective serotonin (5-hydroxytryptamine, 5HT) uptake inhibitor”.
